One data set has as its system human skin. Nature of the data set: Franz cell diffusion apparatus assay, ETA-treated vs control skin (Example 3). It is filed as in vitro ADME. To be noted: ETA-treated human skin compared to non-treated control, 24 hours. The method, then: To quantify the delivery efficacy after ETA application, Franz cell assays were performed pertaining to fluoresceine, sulforhodamine B, dextran (3K), and human insulin (5K). Permeation experiments with Franz diffusion cells were performed using human skin. The Franz diffusion cells were made of glass with a contact area of 1.35 cm^2, consisting of a donor compartment and a receptor compartment. The skin was mounted between the cell compartments and 2 O-ring shaped glasses were used to position the skin epidermis side-up and dermis side-down. The two cell compartments were held together with a clamp. […] It was kept at 37° C. on a heated plate. After 30 minutes of equilibration of the skin with the receptor solution, 200 μl of the drug solution was applied in the donor compartment with a pipet. The donor compartment was then covered with parafilm to prevent evaporation of the solvent. The receptor solution was continuously stirred using a spinning bar magnet at 200 rpm. Receptor solution samples, 0.2 ml aliquots, were withdrawn through the sampling port of the receptor compartment at various time intervals. The cells were refilled with a same amount of receptor solution to keep the volume of receptor solution constant during the experiment. The experiments were run for 24 hours. […]

Data set [1] concerns human skin explants or xenograted human skin. Nature of the data set: Confocal imaging of fluorescent dye distribution in ETA-desquamated skin (Example 2). The note with it: ETA 100 μg/mL treated vs untreated skin. The method, then: Human skin samples were fixed in 10% formaldehyde overnight and then embedded in paraffin. Samples were cut using a microtome to a thickness of 6 μM and baked on slides for 1 hour in a dry heat incubator at 58° C. Nuclei and eosinophillic structures were visualized by hematoxylin and eosin staining, respectively. The hematoxylin stains nuclei blue and eosins stains eosinophillic structures different shades of red. Histological images were taken with an inverted microscope.
The skin was either subjected to no treatment or application of ETA at 100 μg/mL.
To image the distribution of each dye in the human skin, human skin specimens were collected at 6, 12, 18 and 24 hours. Ordinary skin with intact S.C. and desquamated skin using ETA (methods previously described) were used. Frozen sections of human skin specimens were cut using a microtome to a thickness of 7 μM and DAPI was used for counter staining. Skin imaging was carried out at room temperature using Nikon confocal microscope equipped with NIS-Elements AR 3.10 software.

On to Dextran, for which the “skin permeability, fluorescence in receptor compartment” value with human skin is reported as “increase in skin permeability”. Moreover, in data set [1], the “skin permeability after removal of S.C. by ETA” value is “substantially increased”.
